In general, IC50 refers to the point on the concentration scale where inhibition reaches its midpoint. In general, Ki refers to a measure of affinity in units of concentration, obtained from inhibition or displacement.

For experiment [1], the target named is T1, Hepatocyte growth factor receptor (Homo sapiens, UniProt P08581). Put plainly: Inhibition of HGF-mediated c-met autophosphorylation in serum-starved human PC3 cells after 1 hr by electrochemiluminescent immunoassay. In kind it is cell-based, PC-3.
Experiment [2] addresses T1, Hepatocyte growth factor receptor. Put plainly: Inhibition of recombinant c-met-mediated gastrin phosphorylation by HTRF assay. Background: Time-resolved FRET reads energy transfer from a long-lived donor to a nearby acceptor.

For the molecule `COc1cc2nccc(Oc3ccc(NC(=O)c4c(C)n(C)n(-c5ccccc5)c4=O)cc3F)c2cc1OC`, the IC50 in experiment [1] amounted to 20 nM. In addition, the Ki in experiment [2] stood at 1 nM.
